Experimental data published in BindingDB's records for 1846921 (Zambeletti Research Laboratories, 1991).

Chains of the proteins cited; added tags and fusions are not shown.
UniProt P41143, whole entry, looked up: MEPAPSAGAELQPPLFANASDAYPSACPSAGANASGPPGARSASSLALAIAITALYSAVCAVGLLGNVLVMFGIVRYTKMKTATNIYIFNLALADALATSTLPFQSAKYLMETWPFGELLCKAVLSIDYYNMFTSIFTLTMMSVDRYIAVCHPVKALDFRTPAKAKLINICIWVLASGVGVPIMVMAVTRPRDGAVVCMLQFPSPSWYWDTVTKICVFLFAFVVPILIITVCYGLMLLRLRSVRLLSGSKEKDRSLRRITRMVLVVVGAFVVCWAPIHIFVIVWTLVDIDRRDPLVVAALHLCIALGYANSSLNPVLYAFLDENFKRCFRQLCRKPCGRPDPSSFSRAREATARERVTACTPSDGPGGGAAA

Target: Delta-type opioid receptor (Homo sapiens, UniProt P41143)
Test: ChEBML_146440

CN(C(=O)Cc1ccc(Cl)c(Cl)c1)[C@@H]1CCCC[C@H]1N1CCCC1
Ki: > 10 µM
